Molecular target: T1, recombinant human TNFα (human, UniProt P01375 77-233, 125I label in the receptor binding assay)
T1 construct: also called huTNF∀; tumor necrosis factor alpha
Experiment: competition: cA2 spiked into anti-IL-18 control supernatant, preincubated with 5 ng/ml 125I-TNFα, then binding to plate-coated p55-sf2, cpm bound by gamma counter

Chains of the proteins cited; added tags and fusions are not shown. Residues count along the entry.
UniProt P01375, 77-233 limits assumed: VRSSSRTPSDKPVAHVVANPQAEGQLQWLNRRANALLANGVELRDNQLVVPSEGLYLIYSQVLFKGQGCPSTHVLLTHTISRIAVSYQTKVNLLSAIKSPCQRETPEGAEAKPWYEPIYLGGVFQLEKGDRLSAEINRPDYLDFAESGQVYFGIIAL

B1: cA2 (anti-TNF chimeric antibody, Remicade) (antibody, V domains shown)
VH: EVKLEESGGGLVQPGGSMKLSCVASGFIFSNHWMNWVRQSPEKGLEWVAEIRSKSINSATHYAESVKGRFTISRDDSKSAVYLQMTDLRTEDTGVYYCSRNYYGSTYDYWGQGTTLTVS
VL: DILLTQSPAILSVSPGERVSFSCRASQFVGSSIHWYQQRTNGSPRLLIKYASESMSGIPSRFSGSGSGTDFTLSINTVESEDIADYYCQQSHSWPFTFGSGTNLEVK
IC50 (read off the curve): ~10 ng/mL
